Measured values taken from PubChem BioAssay AID590 (National Center for Advancing Translational Sciences (NCATS), 2007).
The list shows a part of the results, in another mix than the full data. Records with an inconclusive call do not appear. The source made the active and inactive calls. Cut-off read from the data, not from the text of the source: active = max dye-equivalent concentration above about 10 nM; inconclusive = mostly about 1.1 nM to 9.6 nM; inactive = weaker than that.

assay: qHTS Assay for Spectroscopic Profiling in A350 Spectral Region; conditions: Compound autofluorescence, 340/450 nm, Alexa 350 dye-equivalents; stronger effect = higher value
Excerpt: NIH Molecular Libraries Screening Centers Network [MLSCN]
NIH Chemical Genomics Center [NCGC]
Occasionally, the artifactual effect may originate from the compounds own spectral or other biophysical properties which generally tend to track its assay concentration. Pre-screening/profiling the library with respect to the compounds spectral properties should help one exclude false positives early on. While the most informative fluorescent profiling data set is obtained by performing a full excitation and emission scan of each well by using a monochromator-based plate reader, such an approach is practical only on a very limited scale as scanning each well requires long time. An alternative approach, applied here, is to perform plate reader scans using selected excitation and emission wavelength pairs to generate a multidimensional relational database that correlates compound concentration and the respective relative fluorescence intensity at a given wavelength set. A standard curve of Alexa 350 (A 350) present on each plate as six-point concentration series, was used to compute a normalized fluorescence response, termed dye-equivalent concentration, for each compound at each concentration.
NCGC Assay Protocol Summary:
100 mM Tris buffer, pH 8.0 […]

Structure (SMILES) | max dye-equivalent concentration
COP1(=S)c2c(C)nn(CCC#N)c2N=C(c2ccc(F)cc2)N1C (configuration not stated) | active: 140 nM
CN1CCC[C@H](OC(=O)C(c2ccccc2)c2ccccc2)C1 | active: 10 nM
